Source: PubChem BioAssay AID720553 (National Center for Advancing Translational Sciences (NCATS), 2013)
The list shows a part of the results, in another mix than the full data. Activity calls are given as the source filed them.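 The calls were made as follows: active = maximum activity change below -70%; inconclusive = maximum activity change from -70% to -50%; inactive = maximum activity change above -50%.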
% is scaled to controls: 0 for no effect and ±100 for the full control effect.

The molecules below were run on Potassium voltage-gated channel subfamily H member 2, brain isoform KCNH2 3.1 (human) (assay: qHTS for Inhibitors of KCHN2 3.1: Mutant qHTS). Conditions: U2OS KCNH2 3.1, thallium flux FluxOr; stronger effect = lower value.
Excerpt: Many antipsychotic drugs that inhibit the neurotransmitter dopamine also bind to hERG1 channel which might help explain their antipsychotic activity but also produces cardiac side effects. The discovery of the novel KCNH2 3.1 isoform offers a potential new target for the development of antipsychotic drugs without cardiac side effects. This proposal will use a high throughput thallium flux assay developed for KCNH2 to screen compounds that modulate the activity of KCNH2 3.1. The wild type KCNH2 channel will also be screened in parallel to help define the selective modulators of this KCNH2 3.1 potassium channel. The resulting compounds will be validated in electrophysiology experiments. The availability of animal models will allow future testing in vivo for effects on memory and other aspects of animal physiology linked with psychosis. NIH Chemical Genomics Center [NCGC] NIH Molecular Libraries Probe Centers Network [MLPCN] MLPCN Grant: MH096539 Assay Submitter (PI): James Barrow, Johns Hopkins University, Lieber Institute for Brain Development
U2OS cells were resuspended in cell media containing 10% fetal calf serum (FCS) at a concentration of 2 million cells / mL. The solution was treated with the mutant (3.1) virus at 1.77 x 10^8 / mL and allowed to incubate at room temperature in the dark. After 4 hours of incubation, DMEM + 10% fetal bovine serum (FBS) was added to the cell solution. Three microliter was then dispensed into a 1536 tissue culture treated black assay plates which were incubated overnight at 37 C. Two microliter of loading buffer (HBSS + HEPES + Red40 dye quencher + FluxOr dye) was added and the assay plates were incubated for 45 min at room temperature in the dark. […] A stimulation buffer was added to the plate and the second kinetic read (2 min) was obtained. The rate constant was calculated from the kinetic reads and normalized to the positive and negative DMSO controls.
In the case of `COc1ccccc1OP(C)(=O)Nc1c(C)n(C)n(-c2ccccc2)c1=O` (centres undefined), the activity change was inactive: -5.06%. For `CCc1ccc(OP(C)(=O)Nc2cccnc2)cc1` (centres undefined), the activity change was inactive: 11.6%. For `CP(=O)(Oc1ccccc1)N1CCOC1=O` (centres undefined), the activity change was inactive: 1.28%. `Nc1ccc2c(ccc3cccnc32)n1.O=[N+]([O-])c1cc([N+](=O)[O-])c(O)c([N+](=O)[O-])c1` was tested, and the activity change was inactive: 21.2%. In the case of `CCOC(=O)c1ccc(NP(C)(=O)Oc2ccc(Cl)cc2)cc1` (centres undefined), the activity change was inactive: -14.6%. For `CP(=O)(OC12CC3CC(CC(C3)C1)C2)OC12CC3CC(CC(C3)C1)C2`, the activity change was inactive: -21.1%. In the case of `CP(=O)(OCCOc1ccccc1)OCCOc1ccccc1`, the activity change was inactive: -3.6%. In the case of `CCCCCCCCCCCCCCCC1C[N+](C)(C)CCOP(C)(=O)O1` (centres undefined), the activity change was inactive: 5.65%. In the case of `CP(=O)(Nc1ccc(Cl)cc1Cl)Oc1ccccc1` (centres undefined), the activity change was inactive: 11.6%. For `Cc1cc(C)cc(OP(C)(=O)Nc2cccc(C(F)(F)F)c2)c1` (centres undefined), the activity change was inactive: -21.7%. With `COc1ccccc1OP(C)(=O)Nc1ccc(C)c(C)c1` (centres undefined) the activity change was inactive: 1.62%. `COc1ccc(OP(C)(=O)Nc2ccccc2Br)cc1` (centres undefined) was tested, and the activity change was inactive: 8.73%. With `O=[N+]([O-])c1cc([N+](=O)[O-])c(Nc2ccccn2)c([N+](=O)[O-])c1` the activity change was inactive: -0.16%. In the case of `Cc1c(NP(C)(=O)Oc2ccc(C(C)C)cc2)c(=O)n(-c2ccccc2)n1C` (centres undefined), the activity change was inactive: 4.46%. In the case of `COc1ccccc1OP(C)(=O)Nc1ccc(C)cc1C` (centres undefined), the activity change was inactive: -12.1%. In the case of `CP(=O)(Nc1ccccn1)Oc1ccccc1` (centres undefined), the activity change was inactive: -9.35%. For `CCc1ccc(OP(C)(=O)O)cc1`, the activity change was inactive: -5.89%. `COc1ccccc1OP(C)(=O)Nc1ccc(Br)cc1` (centres undefined) was tested, and the activity change was inactive: 7.33%. `COc1ccc(OP(C)(=O)Nc2ccccn2)cc1` (centres undefined) was tested, and the activity change was inactive: -5.7%. With `CN(C)CCOC(=O)C(O)(c1ccccc1)C1CCCC1` (centres undefined) the activity change was inactive: 2.54%. In the case of `CCN(CC)CCCOC(=O)C(O)(c1ccccc1)c1ccccc1`, the activity change was inactive: -8.4%. With `Cc1ccc(NP(C)(=O)Oc2ccccc2)c(C)c1` (centres undefined) the activity change was inactive: -1.15%. With `COc1ccccc1OP(C)(=O)Nc1ccc(C)cc1` (centres undefined) the activity change was inactive: -5.27%. In the case of `CCOC(=O)c1ccc(NP(C)(=O)Oc2ccccc2)cc1` (centres undefined), the activity change was inactive: -0.384%. With `Cc1cc(C)cc(OP(C)(N)=O)c1` (centres undefined) the activity change was inactive: 7.73%. In the case of `COc1ccc(OP(C)(=O)Nc2cccc(F)c2)cc1` (centres undefined), the activity change was inactive: 7.43%. For `COc1ccccc1OP(C)(=O)Nc1cc(Cl)ccc1C` (centres undefined), the activity change was inactive: -36.8%. `O=[N+]([O-])c1cc([N+](=O)[O-])c(Nc2cccnc2)c([N+](=O)[O-])c1` was tested, and the activity change was inactive: 24.4%. `Cc1cccc(C)c1OP(C)(N)=O` (centres undefined) was tested, and the activity change was inactive: 2.19%. `CC(C)(C)c1ccc(OP(C)(=O)Nc2ccc(SC(F)(F)F)cc2)cc1` (centres undefined) was tested, and the activity change was inactive: -6.64%. In the case of `CP(=S)(Nn1cnnc1)Oc1ccccc1` (centres undefined), the activity change was inactive: 1.44%. With `CP(=O)(Nc1ccccc1Br)Oc1ccccc1` (centres undefined) the activity change was inactive: 2.74%. With `COc1ccccc1OP(C)(=O)Nc1ccccc1` (centres undefined) the activity change was inactive: -6.46%. `CCOC(=O)c1ccc(NP(C)(=O)Oc2ccc(OC)cc2)cc1` (centres undefined) was tested, and the activity change was inactive: 23.3%. With `O=[N+]([O-])c1cc([N+](=O)[O-])c(O)c([N+](=O)[O-])c1.c1ccc(Oc2ccncc2)cc1` the activity change was inactive: 3.18%. For `CCOP(C)(=S)SCC(=O)NC(C)C(=O)O` (centres undefined), the activity change was inactive: 23.6%. `CP(=O)(Nc1ccccn1)Oc1ccc(Cl)cc1` (centres undefined) was tested, and the activity change was inactive: 5.68%. `CP(=O)(Oc1ccccc1)OC(c1ccccc1)C(F)(F)F` (centres undefined) was tested, and the activity change was inactive: 1.66%. For `Cc1cccc(C)c1OP(C)(=O)Nc1ccc(SC(F)(F)F)cc1` (centres undefined), the activity change was inactive: 1.08%. With `CP(=O)(Nc1ccc(SC(F)(F)F)cc1)Oc1ccc(Cl)cc1` (centres undefined) the activity change was inactive: 12.5%. In the case of `Cc1cc(C)cc(OP(C)(=O)Nc2ccc(SC(F)(F)F)cc2)c1` (centres undefined), the activity change was inactive: -0.023%. For `CCc1ccc(OP(C)(=O)N2CCN(c3ccc([N+](=O)[O-])cc3)CC2)cc1` (centres undefined), the activity change was inactive: -6.91%. In the case of `CP(=O)(NC(=O)Nc1ccccc1)Oc1ccccc1` (centres undefined), the activity change was inactive: -8.71%. With `O=[N+]([O-])c1cc([N+](=O)[O-])c(-c2cnn(-c3ccccc3)c2)c([N+](=O)[O-])c1` the activity change was inactive: -4.07%. For `Cc1nc2ccc3ccccc3c2s1.O=[N+]([O-])c1cc([N+](=O)[O-])c(O)c([N+](=O)[O-])c1`, the activity change was inactive: -13.6%. In the case of `O=[N+]([O-])c1cc([N+](=O)[O-])c(-n2nnc3ccccc32)c([N+](=O)[O-])c1`, the activity change was inactive: -0.282%. `COc1ccccc1OP(C)(=O)Nc1c(C)cccc1C` (centres undefined) was tested, and the activity change was inactive: 5.35%. In the case of `CN1CCCCC1COC(=O)C1(O)c2ccccc2CCc2ccccc21` (centres undefined), the activity change was inactive: -4.31%. In the case of `CP(=O)(Nc1ccc(SC(F)(F)F)cc1)Oc1ccccc1` (centres undefined), the activity change was inactive: -4.65%. With `CCCOc1ccc(NP(C)(=O)Oc2ccc(Cl)cc2)cc1` (centres undefined) the activity change was inactive: 9.24%. `O=[N+]([O-])c1cc([N+](=O)[O-])c(Nc2nnnn2CCO)c([N+](=O)[O-])c1` was tested, and the activity change was inactive: 4.18%. With `CC1=C2N=C(C=C3N=C(C(C)=C4[N-][C@@](C)([C@@H]5N=C1[C@](C)(CCC(=O)NC[C@@H](C)OP(=O)([O-])O[C@H]1[C@@H](O)[C@@H](n6cnc7cc(C)c(C)cc76)O[C@@H]1CO)[C@H]5CC(N)=O)[C@@](C)(CC(N)=O)[C@@H]4CCC(N)=O)[C@@](C)(CC(N)=O)[C@@H]3CCC(N)=O)C(C)(C)[C@@H]2CCC(N)=O.[C-]#N.[Co+3]` the activity change was inactive: -6.07%. `CC1=NCCc2c1[nH]c1ccccc21.O=[N+]([O-])c1cc([N+](=O)[O-])c(O)c([N+](=O)[O-])c1` was tested, and the activity change was inactive: 4.09%. In the case of `Cc1ccc(C)c(NP(C)(=O)Oc2ccccc2)c1` (centres undefined), the activity change was inactive: 9.64%. For `CP(=O)(Nc1cccc(Br)c1)Oc1ccccc1` (centres undefined), the activity change was inactive: 6.15%. With `Cc1cc(C)cc(OP(C)(=O)Nc2ccccn2)c1` (centres undefined) the activity change was inactive: 20.1%. In the case of `COc1ccccc1OP(C)(=O)Nc1cccc(Br)c1` (centres undefined), the activity change was inactive: -14.9%. For `CCOC(=O)c1ccc(NP(C)(=O)Oc2cc(C)cc(C)c2)cc1` (centres undefined), the activity change was inactive: -20.5%. In the case of `Cc1cc(C)cc(OP(C)(=O)Nc2ccc(C)cc2C)c1` (centres undefined), the activity change was inactive: -6.53%.
